# Results from PubChem BioAssay AID743019 (Broad Institute, 2013).
# The entries are a selection whose mix differs from that of the whole data set. Active and inactive are the calls of the source.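 Rule for the calls: active = rising signal whose fitted curve reaches the 0.54 level within the top valid dose, showing a melting point (actives reach about 13 µM in these data); inactive = the rest, including activity in the opposite direction.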
# Experiment: compound-only thermal shift signal without protein, dose response, artefact control for FGF22 binder project, biochemical, cherry-picked samples, RT-PCR instrument (AID 743019); note: value is where the raw curve crosses a fixed level and not half-maximal
# Conditions: compound-only SYPRO orange thermal shift counter-screen, no protein; at 38 µM (top of the series)
row,SMILES,outcome
1,Nc1ccc(CCCCOc2ccccc2)cc1,inactive
2,Cc1ccc(S(=O)(=O)N(CCCN)CCCc2c(C)nc(N)[nH]c2=O)cc1,inactive
